T1: mouse Rspo2 Fu1 (I39-R95), immobilised for SPR (mouse, UniProt Q8BFU0 39-95, biotin at the C-terminal BirA recognition sequence)
T1 chain: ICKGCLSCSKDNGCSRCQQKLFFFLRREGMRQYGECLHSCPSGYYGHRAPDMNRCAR

B1: mouse ZNRF3 ectodomain (mZNRF3ecto, K53-L205) (domain or fragment, UniProt Q5SSZ7 53-205, looked up)
chain: KETAFVEVVLFESSPSGDYTTHTTGLTGRFSRAGAMLSAEGEIVQMHPLGLCNNNDEEDLYEYGWVGVVKLEQPELDPKPCLTVLGKAKRAVQRGATAVIFDVSENPEAIDQLNQGSEDPLKRPVVYVKGADAIKLMNIVNKQKVARARIQHL
notes: ZNRF3 ectodomain, mouse, residues K53-L205; pHLsec vector; used for crystals, ultracentrifugation and as SPR analyte; also called wt mZNRF3_(ecto); source: HEK293T, secreted, purified (HisTrap, gel filtration)
B2: mouse Rspo2 Fu1–Fu2 (I39-G144), biotinylated, immobilised for SPR (domain or fragment, UniProt Q8BFU0 39-144, looked up)
chain: ICKGCLSCSKDNGCSRCQQKLFFFLRREGMRQYGECLHSCPSGYYGHRAPDMNRCARCRIENCDSCFSKDFCTKCKVGFYLHRGRCFDECPDGFAPLDETMECVEG
modifications: biotin at the C-terminal BirA recognition sequence
notes: R-spondin 2, mouse, residues I39-G144; also called mRspo2_(Fu1–Fu2) (I39-G144); mRSPO2(I39-G144)
B3: mouse Rspo2 Fu1 (I39-R95), immobilised for SPR (domain or fragment, UniProt Q8BFU0 39-95, looked up)
chain: T1 chain
modifications: biotin at the C-terminal BirA recognition sequence
notes: R-spondin 2, mouse, Furin1 domain, residues I39-R95; also called mRspo2Fu1

Experiments:
[1] = biological target: T1, mouse Rspo2 Fu1 (I39-R95), immobilised …; experiment: SPR
[2] = biological target: B1; experiment: SPR; mZNRF3ecto as analyte, biotinylated Rspo variants immobilised on streptavidin; equilibrium, 25 °C, 10 mM HEPES/NaOH pH 7.5, 150 mM NaCl, 0.005% Tween20; Biacore T200; conditions: both partners purified

Binder | Kd [1] [nM] | binding result [2]
B1 | 510 | 
B2 |  | binds
B3 |  | binds

Reference: publication PMC3905715 (Nature Communications, 2013)
